Key:
[1] = Surfactant combinations giving clear aqueous dispersions (maximum hydrophobic surfactant, visual optical clarity); conditions: 10× aqueous dispersion, no solubilizer
[2] = value reported by the manufacturer of the commercial product, a rough average, or inventors' judgment; cited from earlier work

Question: For Glyceryl caprylate/caprate, which “approximate maximum grams of hydrophobic surfactant per 100 g of hydrophilic surfactant giving acceptable optical clarity” value ([1]; hydrophilic surfactant PEG-8 Capric/Caprylic (Labrasol)) is on record?
Answer: 20 g per 100 g of hydrophilic sur

Question: What about the “approximate maximum grams of hydrophobic surfactant per 100 g of hydrophilic surfactant giving acceptable optical clarity” value ([1]; hydrophilic surfactant PEG-25 Glyceryl trioleate (Tagat TO)) of the same substance?
Answer: 10 g per 100 g of hydrophilic sur

Question: And the “approximate maximum grams of hydrophobic surfactant per 100 g of hydrophilic surfactant giving acceptable optical clarity” value ([1]; hydrophilic surfactant PEG-35 Castor Oil (Incrocas 35))?
Answer: 10 g per 100 g of hydrophilic sur

Question: And the “approximate maximum grams of hydrophobic surfactant per 100 g of hydrophilic surfactant giving acceptable optical clarity” value ([1]; hydrophilic surfactant PEG-40H Castor Oil (Cremophor RH-40))?
Answer: 50 g per 100 g of hydrophilic sur

Question: And the “approximate maximum grams of hydrophobic surfactant per 100 g of hydrophilic surfactant giving acceptable optical clarity” value ([1]; hydrophilic surfactant PEG-60 Corn Oil (Crovol M-70))?
Answer: 25 g per 100 g of hydrophilic sur

Question: What about the “approximate maximum grams of hydrophobic surfactant per 100 g of hydrophilic surfactant giving acceptable optical clarity” value ([1]; hydrophilic surfactant Polysorbate 80 (Tween 80)) of the same substance?
Answer: 25 g per 100 g of hydrophilic sur

Question: What about the “approximate maximum grams of hydrophobic surfactant per 100 g of hydrophilic surfactant giving acceptable optical clarity” value ([1]; hydrophilic surfactant Polysorbate-20 (Tween 20)) of the same substance?
Answer: 20 g per 100 g of hydrophilic sur

Question: With PEG-15-100 octyl phenol ether as the substance, how does the HLB [2] read?
Answer: >10

Question: For Propylene glycol caprylate/caprate, which HLB [2] is on record?
Answer: >6

Question: For PEG-10-100 nonyl phenol, which HLB [2] is on record?
Answer: >10

— patent publication US6451339B2, “Compositions and methods for improved delivery of hydrophobic agents” (Lipocine, Inc., priority 1999, dated 2002)
